High-throughput results from PubChem BioAssay.
LGR2 inh: inhibitors of bursicon-induced Drosophila LGR2 receptor cAMP signaling; HEK293 LGR2, CRE-luciferase, bursicon-stimulated, 4 h; 0.35% of 380,000 active; inhibition, % at 9.99 µM;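 active = drop in luminescence signal, shown as inhibition above about 50% in the replicate tests, limit read from the data, passing the limit was not always enough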;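 note: agonist challenge used bursicon conditioned medium at about half maximal strength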
UUG fidelity: modulators of start codon recognition fidelity in yeast; activity score, % at 18.7 µM; actives 0.13% (n = 350,000); S. cerevisiae UUG-firefly luciferase reporter, luminescence/redox ratio;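 active = replicate mean at a twofold rise or more, about +100% in these data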;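 note: firefly luciferase made from a UUG start codon reports start codon fidelity; reporter light over untreated wells divided by growth signal over untreated wells; some hits fall short of that in this replicate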
miR-122 sensor: blocks miR-122 activity in Huh7 sensor cells. AID 602342. activation (reporter increase), % at 12.5 µM. Huh7 miR-122 Renilla luciferase sensor, 48 h; neutral wells = 0, positive control = 100. 0.3% of 340,000 active;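 active = mean replicate activation score at least 90 and every replicate individually at or above 90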;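 note: higher luciferase means less miR-122 activity so hits act as miR-122 inhibitors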
F508del corr: CFTR F508del correction in bronchial cells; CFBE cells, YFP halide quenching; stimulated with forskolin plus potentiator P3; % fluorescence drop versus neutral controls; activity (quench increase), % at 7.58 µM; 0.36% of 350,000 active; AID 720511;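 active = mean added fluorescence quench of at least 8% versus neutral control, with both replicates also reaching 8%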;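 note: cells transiently co-express mutant CFTR-F508del with the halide-sensitive YFP; corrector assay measuring rescue of mutant channel to the surface after 24 h compound exposure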
EWS-Fli block: EWS/Fli transcriptional activity inhibition; 0.67% of 350,000 active; AID 651661; inhibition, % at 12.6 µM; A673 NR0B1-luciferase reporter, viability-normalised;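 active = mean inhibition of at least 50% after viability correction, with every replicate also passing that limit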;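 note: firefly luciferase signal divided by Alamar Blue viability fluorescence both relative to DMSO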
PglD inh: inhibitors of Campylobacter jejuni PglD acetyltransferase | AID 602405 | inhibition, % at 12.5 µM | purified PglD enzyme, DTNB colorimetric CoA detection | 0.098% of 360,000 active; in the data active = inhibition above about 16%, passing the limit was not always enough
* = called active by the depositor; [ ] = dose if it differs, or a comment. An excerpt weighted towards active compounds, which were near 1.3% of everything screened.

`NC(=O)c1ccc(-c2c(-c3ccccc3)sc3ccccc23)cc1` gave LGR2 inh -2, UUG fidelity 26, miR-122 sensor -12, F508del corr 3, EWS-Fli block 13 and PglD inh -1.
COc1ccccc1NS(=O)(=O)c1cc(NC(=O)c2cccc(S(=O)(=O)N(C)C)c2)ccc1N1CCOCC1 was read as LGR2 inh 14, miR-122 sensor 135*, F508del corr 1 and EWS-Fli block 0.
`COc1ccccc1NS(=O)(=O)c1cc(NC(=O)c2ccc(NC(C)=O)cc2)ccc1N1CCOCC1` gave LGR2 inh -10, UUG fidelity -8, F508del corr -8, EWS-Fli block 2 and PglD inh 0.
For COc1ccccc1NS(=O)(=O)c1cc(NC(=S)NCCN2CCOCC2)ccc1N1CCOCC1 the results were LGR2 inh 0, miR-122 sensor 217* and EWS-Fli block -2.
Screening COc1ccccc1NS(=O)(=O)c1cc(NC(=O)/C=C/c2cccs2)ccc1N1CCOCC1 returned UUG fidelity -12, miR-122 sensor 258*, EWS-Fli block 7 and PglD inh -1.
`O=C(/C=C/c1cccs1)Nc1ccc(N2CCOCC2)c(S(=O)(=O)Nc2ccccc2Cl)c1` gave LGR2 inh -16, UUG fidelity -23, miR-122 sensor 74 and PglD inh 2.
`CCCNC(=O)C[C@@H]1C[C@@H]2c3cc(NC(=O)CN(C)C)ccc3O[C@@H]2[C@H](CO)O1` gave LGR2 inh 0, UUG fidelity -12, miR-122 sensor 7[16.7 µM], F508del corr 0, EWS-Fli block -2 and PglD inh 9.
`Cc1ccc(C)c(S(=O)(=O)N(C(=O)c2ccncc2)c2ccc(OC(=O)c3ccncc3)cc2)c1` gave LGR2 inh 96*, F508del corr 1 and EWS-Fli block 5.
`COc1ccc2c3c(n(C)c2c1)[C@H](CO)N(CC1CC1)CC31CN(C(=O)c2cccc(F)c2)C1` gave LGR2 inh 4, F508del corr -1 and EWS-Fli block 3.
`COC(=O)C1=C(C)N(Cc2cccc(C(F)(F)F)c2)C(=NCc2ccc(OC)cc2)NC1c1cccc(Cl)c1` (configuration not stated) gave LGR2 inh 59*, F508del corr 6 and EWS-Fli block 46.
COC(=O)C1=C(C)N(Cc2ccc(C(F)(F)F)cc2)C(=NCC2CC2)NC1c1cccc(Cl)c1 (configuration not stated) was read as LGR2 inh 57*, F508del corr 3 and EWS-Fli block 29.
Screening C=CCN=C1NC(CCc2ccccc2)C(C(=O)OC)=C(C)N1Cc1cccc(C(F)(F)F)c1 (configuration not stated) returned LGR2 inh 62*, F508del corr -2 and EWS-Fli block 27.
For COC(=O)C1=C(C)N(Cc2ccc(C(F)(F)F)cc2)C(=NCc2ccccc2)NC1c1cccc(F)c1 (configuration not stated) the results were LGR2 inh 58*, F508del corr 1 and EWS-Fli block 26.
For COC(=O)C1=C(C)N(Cc2ccc(C(F)(F)F)cc2)C(=NCc2ccc(OC)cc2)NC1c1cccc(Cl)c1 (configuration not stated) the results were F508del corr 3 and EWS-Fli block -14.
For Cc1cccc(C)c1NC(=O)C(c1ccc(-c2ccccc2)cc1)n1c(=O)c(-c2ccco2)nc2ccccc21 (configuration not stated) the results were LGR2 inh 5, F508del corr -3 and EWS-Fli block -2.
Screening O=C(CN(Cc1ccccc1)S(=O)(=O)c1ccc(F)cc1)NCc1cccnc1 returned LGR2 inh -27, UUG fidelity -24, miR-122 sensor 3, F508del corr 9.0* and PglD inh -1.
For COc1ccc(S(=O)(=O)N(CC(=O)NCc2cccnc2)Cc2ccccc2)cc1 the results were LGR2 inh -14, F508del corr -1 and EWS-Fli block 2.
Screening N#Cc1c(N)n(C2OC(CO)C(O)C2O)c2ncnc(N)c12 (configuration not stated) returned LGR2 inh 91*, F508del corr -3 and EWS-Fli block 27.
